Measurements reported in ChEMBL document CHEMBL1149912, “Chemical fragments as foundations for understanding target space and activity prediction” (J Med Chem, 2008).

Chains of the proteins cited; added tags and fusions are not shown. Lines headed by an entry give the natural chain unless they say otherwise; changes in a name come on top.
UniProt P37231: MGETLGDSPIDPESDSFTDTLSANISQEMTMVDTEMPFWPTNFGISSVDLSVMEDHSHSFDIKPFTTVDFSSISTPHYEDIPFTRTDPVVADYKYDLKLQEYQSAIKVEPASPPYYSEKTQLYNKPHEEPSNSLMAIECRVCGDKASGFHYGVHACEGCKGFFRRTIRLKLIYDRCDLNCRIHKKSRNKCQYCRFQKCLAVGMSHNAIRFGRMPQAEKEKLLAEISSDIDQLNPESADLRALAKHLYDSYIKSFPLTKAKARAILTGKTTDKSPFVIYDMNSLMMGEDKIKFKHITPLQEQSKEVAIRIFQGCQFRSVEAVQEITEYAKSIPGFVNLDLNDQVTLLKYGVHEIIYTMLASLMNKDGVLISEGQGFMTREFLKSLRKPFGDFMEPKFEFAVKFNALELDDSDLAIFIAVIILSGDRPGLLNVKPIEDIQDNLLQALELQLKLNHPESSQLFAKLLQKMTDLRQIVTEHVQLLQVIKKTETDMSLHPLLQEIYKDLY
UniProt P07711: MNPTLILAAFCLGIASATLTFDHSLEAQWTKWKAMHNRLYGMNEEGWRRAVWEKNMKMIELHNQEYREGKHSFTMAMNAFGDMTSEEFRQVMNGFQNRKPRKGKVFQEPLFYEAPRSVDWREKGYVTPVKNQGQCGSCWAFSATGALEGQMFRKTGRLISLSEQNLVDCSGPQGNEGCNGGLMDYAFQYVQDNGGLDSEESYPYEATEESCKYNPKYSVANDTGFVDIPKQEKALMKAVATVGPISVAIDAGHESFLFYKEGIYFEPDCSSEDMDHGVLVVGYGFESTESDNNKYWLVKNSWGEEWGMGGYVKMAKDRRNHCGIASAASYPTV

Tests used:
[1] = target: Peroxisome proliferator-activated receptor gamma (Homo sapiens) (UniProt P37231); experiment: Inhibition of PPARG
[2] = target: Procathepsin L (Homo sapiens) (UniProt P07711); experiment: Inhibition of CTSL

With `CCCc1c(OCCCOc2ccc(CC(=O)O)cc2)ccc2c(-c3ccccc3)noc12` the Activity [1] was 32 nM.
With `O=C(N[C@@H](Cc1ccccc1)C(=O)N[C@H]1C(=O)N[C@@H]1Oc1ccccc1)OCc1ccccc1` the Activity [2] was 17 nM.
